{"sequences": {"note": "Amino acid sequences for entries named in this document (tags omitted).", "UniProt O00574, whole entry": "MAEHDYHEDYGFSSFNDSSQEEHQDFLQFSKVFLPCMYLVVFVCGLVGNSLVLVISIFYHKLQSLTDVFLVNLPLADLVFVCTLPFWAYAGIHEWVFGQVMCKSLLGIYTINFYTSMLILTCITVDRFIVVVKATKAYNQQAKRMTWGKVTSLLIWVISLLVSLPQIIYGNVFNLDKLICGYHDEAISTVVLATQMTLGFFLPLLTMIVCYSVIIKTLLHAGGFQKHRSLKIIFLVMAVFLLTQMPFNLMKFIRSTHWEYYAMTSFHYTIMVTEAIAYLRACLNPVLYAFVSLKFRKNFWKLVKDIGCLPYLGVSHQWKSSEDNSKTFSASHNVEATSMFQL"}, "source": "PubChem BioAssay AID602409", "about": "(Sanford-Burnham Center for Chemical Genomics, 2012)", "note": "Only a part is listed here, and it is no random draw. The source made the active and inactive calls.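 The calls were made as follows: active = mean inhibition over four retests above 40%; inactive = the rest.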", "data": [{"biological_target": "C-X-C chemokine receptor type 6 (Homo sapiens) (UniProt O00574)", "experiment": "CXCR6 beta-arrestin signal inhibition by hits – cell-based, single concentration, luminescence, confirmation (AID 602409);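 also: receptor stimulated with 10 nM CXCL16 agonist; beta-galactosidase fragment complementation upon beta-arrestin recruitment to receptor; plate controls were CXCL16 plus DMSO for no effect and DMSO without CXCL16 for full effect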", "settings": "CHO-K1 CXCR6 PathHunter beta-arrestin, at 20 µM, active compounds read high", "values": [{"compound": "O=[N+]([O-])c1cc([N+](=O)[O-])c(Nc2ccc(Cl)cc2)c([N+](=O)[O-])c1", "inhibition": "inactive: 34.5%"}, {"compound": "Cc1ccc(Nc2c([N+](=O)[O-])cc([N+](=O)[O-])cc2[N+](=O)[O-])cc1", "inhibition": "active: 46.4%"}, {"compound": "O=C(O)c1cccc(Nc2c([N+](=O)[O-])cc([N+](=O)[O-])cc2[N+](=O)[O-])c1", "inhibition": "active: 43.9%"}]}]}
